Earlier results as cited in US11844786B2 (ADEPTIO PHARMACEUTICALS LIMITED, priority 2017, dated 2023).

Protein sequences, listed by entry. Tags and fused reporters are not part of them.
UniProt Q01827, whole entry: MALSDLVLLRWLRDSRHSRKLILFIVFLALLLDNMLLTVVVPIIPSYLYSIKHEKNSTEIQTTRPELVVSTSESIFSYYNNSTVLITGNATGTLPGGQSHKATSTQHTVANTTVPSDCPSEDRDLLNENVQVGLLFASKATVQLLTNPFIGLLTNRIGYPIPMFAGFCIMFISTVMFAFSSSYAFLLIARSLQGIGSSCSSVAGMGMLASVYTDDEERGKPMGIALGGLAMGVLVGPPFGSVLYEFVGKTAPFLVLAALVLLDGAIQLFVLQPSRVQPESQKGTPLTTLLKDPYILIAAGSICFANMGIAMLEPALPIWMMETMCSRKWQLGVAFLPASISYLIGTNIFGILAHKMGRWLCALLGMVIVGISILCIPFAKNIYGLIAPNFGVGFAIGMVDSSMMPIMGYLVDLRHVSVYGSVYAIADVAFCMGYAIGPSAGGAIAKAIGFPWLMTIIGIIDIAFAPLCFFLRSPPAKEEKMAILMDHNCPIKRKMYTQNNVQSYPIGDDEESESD

Target: VMAT2 (Rattus norvegicus, UniProt Q01827)
Conditions: statement in words; cited from earlier work

## COc1cc2c(cc1OC)[C@H]1C[C@@H](O)[C@H](CC(C)C)CN1CC2 [(+)-α-DHTBZ, (2R, 3R, 11bR)-3-isobutyl-9,10-dimethoxy-1,3,4,6,7,11b-hexahydro-2H-pyrido[2,1,a]isoquinolin-2-ol]
  activity as a VMAT2 binding agent: most active
